Molecular target: CYP1A2 (Homo sapiens, UniProt P05177)
Conditions: microsomes
Experimental: The CYP reaction was initiated by adding a CYP probe substrate and incubating at 37° C. for 10-20 minutes, depending on the individual CYP isoform. The reaction was terminated with the addition of 400 μL ice-cold acetonitrile (ACN). […] Positive controls were performed in parallel using a known inhibitor of the individual CYP isoform. […] The samples were then transferred to 96-well plates and analyzed by LC-MS/MS (Appendix 1).

Protein sequences, listed by entry. Tags and fused reporters are not part of them.
UniProt P05177, whole entry: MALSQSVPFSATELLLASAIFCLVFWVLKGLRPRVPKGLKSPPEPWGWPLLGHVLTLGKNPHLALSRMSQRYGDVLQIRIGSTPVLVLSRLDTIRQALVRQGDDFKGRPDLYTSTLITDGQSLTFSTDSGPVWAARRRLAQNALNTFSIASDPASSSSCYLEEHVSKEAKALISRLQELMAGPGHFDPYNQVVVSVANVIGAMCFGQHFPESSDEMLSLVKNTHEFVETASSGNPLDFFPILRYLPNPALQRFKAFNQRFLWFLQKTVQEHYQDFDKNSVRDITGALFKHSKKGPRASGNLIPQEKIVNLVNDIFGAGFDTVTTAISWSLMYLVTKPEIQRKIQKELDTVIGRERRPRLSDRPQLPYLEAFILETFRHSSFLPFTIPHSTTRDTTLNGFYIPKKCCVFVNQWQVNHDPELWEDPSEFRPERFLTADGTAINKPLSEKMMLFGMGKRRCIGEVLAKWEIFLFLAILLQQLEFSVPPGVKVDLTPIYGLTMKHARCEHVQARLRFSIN

SMILES: O=c1cc(-c2ccccc2)oc2c1ccc1ccccc12 [α-Naphthoflavone]
- % Inhibition (Positive Control): 92.1%
